# Experimental data published in paper PMC2920882, “GU81, a VEGFR2 antagonist peptoid, enhances the anti-tumor activity of doxorubicin in the murine MMTV-PyMT transgenic model of breast cancer” (BMC Cancer, 2010).
# Entries after “also recorded” stand apart in the source; their conditions may differ.
# Columns and labels:
# [1] = test system: MMTV-PyMT tumors; conditions: 1-way ANOVA
# [2] = test system: 4T1 syngenic breast cancer model; conditions: 4T1 syngeneic model; cited from earlier work
smiles,measurement,setting,value
COCCN(CC(=O)N(CC(=O)N(CC(=O)N(CCCCN)CC(=O)N(CC(=O)N(CCCCN)CC(=O)N(CCCCN)CC(=O)NCCCCCC(=O)NCCC(=O)N[C@@H](CCCCNC(=O)CN(CCCCN)C(=O)CN(CCCCN)C(=O)CN(CC(C)C)C(=O)CN(CCCCN)C(=O)CN(Cc1ccc2c(c1)OCO2)C(=O)CN(CC(C)c1ccccc1)C(=O)CN(CCOC)C(=O)CN(CC(C)C)C(=O)CNCCCCN)C(N)=O)CC(C)C)Cc1ccc2c(c1)OCO2)CC(C)c1ccccc1)C(=O)CN(CC(C)C)C(=O)CNCCCCN (stereo partly shown) [GU81],phospho-histone-3 positive cells (proliferation) vs control,"[1]; p ≤ 0.01 (doxorubicin, combination), 3 animals/group, 5 sections/animal",no effect on tumor cell proliferation or apoptosis; also recorded: no change in either proliferation or apoptosis markers
same,cleaved (active) caspase-3 positive cells (apoptosis) vs control,"[1]; p ≤ 0.05 (doxorubicin), 3 animals/group, 5 sections/animal",no effect on tumor cell proliferation or apoptosis; also recorded: no change in either proliferation or apoptosis markers
same,tumor growth index vs control,"[1]; phospho-histone-3 / cleaved caspase-3 positive cells per 200× field, p ≤ 0.05 for combination","no effect on tumor weight, histology, tumor fat content, or tumor growth index"
same,"MVD (microvessel density), 4T1 model, single agent",[2],effectively reduces tumor size and MVD
